Values of other authors, collected in US5206260A, “Hexahydropyrrolo[2,3-b]indole derivatives” (priority 1991, dated 1993).

Conditions: background statement; cited from earlier work

In the case of `CNC(=O)Oc1ccc2c(c1)[C@]1(C)CCN(C)[C@@H]1N2C` [physostigmine, trimethyl-1,3a,8-hexahydro-1,2,3,3a,8,8a-pyrrol[2,3-b]indole-5(3aS,8aR)methylcarbamate], the oral bioavailability is given as “poor oral bioavailability”.
